# The list is not random: actives were taken first. Their share in the collection is about 13%.
# KDM4E inh: JMJD2E (human) inhibition; B2RXH2; JMJD2E catalytic domain, FDH-coupled NADH fluorescence (FDH is formaldehyde dehydrogenase); Potency, µM (series often up to 57.1 µM), most hits filed as inhibitors; hit rate 1.6% among 230,000; AID 2147; active means well fitted inhibition curve with a large enough effect, not every such curve was filed as active; inconclusive means small, poorly fitted or top-dose-only effect, or another doubt; inactive means no such curve, though single readings can be large or run the other way; further: nearly all actives have a fitted effect of over 50% in size
# Lamin A splicing: LMNA splicing modulation. HeLa LMNA splicing GFP/RFP minigene ratio, 48 h. Potency, µM (series often up to 46.1 µM), hits mostly inhibitors. hit rate 0.01% among 200,000. AID 1487; active means well fitted inhibition curve with a large enough effect in the signal ratio, with a control signal flat, not every such curve was filed as active; inconclusive means small, poorly fitted or top-dose-only effect, or effect the other way, or a change in a side signal; the % refers to the signal ratio
#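 S3 HeLa cells stably expressing lamin A-EGFP splicing minigene plus DsRed2, 600 cells/well, 48 h compound exposure at 37C. Laser-scanning cytometry; analysed as GFP (500-530 nm)/RFP (575-640 nm) total intensity ratio; 0.5% DMSO vehicle.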
# G9a inh: blocks human histone lysine methyltransferase G9a | Q96KQ7 | G9a H3K9 monomethylation, AlphaScreen, 2 h | Potency, µM (titrated, usually from 102 µM), usual class: inhibitors | hit rate 8.8% among 350,000 | AID 504332; further: nearly all actives have a fitted effect of over 75% in size
#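 Readings reflect AlphaScreen signal from monomethyl-H3K9 antibody detection. HMT at 20 nM; substrate b-H3K9 500 nM; cofactor SAM 20 uM; 2 h RT reaction; compounds tested as titrations in qHTS with 15 min preincubation.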
# ALDH1A1 block: blocks purified human ALDH1A1 activity; P00352; Purified ALDH1A1, NADH fluorescence, propionaldehyde substrate; Potency, µM (doses to about 75.3 µM), hits mostly inhibitors; hit rate 7.3% among 220,000; AID 1030; active means well fitted inhibition curve with a large enough effect, not every such curve was filed as active; inconclusive means small, poorly fitted or top-dose-only effect, or another doubt; inactive means no such curve, though single readings can be large or run the other way
# miR-21 FLuc: miR-21 reporter, rising signal | HeLa miR-21 FLuc reporter, luciferase, 48 h | Potency, µM (highest dose often 38.3 µM) | 340,000 tested, under 10 active | AID 2288; active = well fitted rising curve with a large enough effect; inconclusive = small, poorly fitted or top-dose-only effect; inactive = no such curve, though single readings can be large or run the other way;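 further: miR-21 action dims this reporter so a rising signal means less miR-21 action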
#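 HeLa miR-21-FLuc reporter line, endogenous miR-21; 2000 cells/well in DMEM/10% FBS; compound titration up to ~40uM final, 48 h, 37 degree Celsius; luciferase detection reagent, 15 min lysis, CCD luminescence.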
# Sfp inh: Sfp phosphopantetheinyl transferase inhibition; hit rate 3.5% among 310,000; AID 1490; Biochemical Sfp PPTase activity, qHTS; Q9F4F7; Potency, µM, hits mostly inhibitors;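 further: the enzyme is Sfp with the accession as filed and its product quenches rhodamine fluorescence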
#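 Fluorescence-quenching assay: 15 nM Sfp-PPTase preincubated 15 min at room temperature with compound, then 5 uM rhodamine-CoA and 12.5 uM BHQ-2-labelled YbbR peptide added. Fluorescence (ex 525/em 598 nm) read at start and after 30 min; difference gives rate.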
# A number is an active result; 0 = inactive; ? = inconclusive; - = not tested or not shown; ! = not active in a repeat; [ ] = dose if it differs, or a comment. Unless noted, the call rests on the fitted dose curve; in most records, active means well fitted curve in the direction sought with a large enough effect; inconclusive means small, poorly fitted or top-dose-only effect, or another doubt; inactive means no such curve, though single readings can be large; an effect the other way counts as inactive or inconclusive.
SMILES,KDM4E inh,Lamin A splicing,G9a inh,ALDH1A1 block,miR-21 FLuc,Sfp inh
C/C(=N\N1CCCCC1)c1ccccc1O,-,-,0,-,0,0
Oc1ccccc1C(=S)N1CCCCCC1,0,0,?,25µM,0,0
Oc1ccccc1C(=S)N1CCCCC1,0,0,10µM,?,0,0
CCn1c(C(=O)N2CCCC(C(=O)N3CCN(c4ccccc4)CC3)C2)cc2sccc21 (stereo not given),-,-,0,-,0,-
O=C(Nc1ccccc1C(=O)NCc1cccnc1)c1ccccc1F,-,-,-,-,0,0
CCSc1nnc(CNC(=O)C23CC4CC(CC(C4)C2)C3)n1Cc1ccccc1,0,0,32µM,0,0,0
CCCSc1nnc(CNC(=O)C23CC4CC(CC(C4)C2)C3)n1Cc1ccccc1,0,0,?,0,0,0
COc1cccc(N2CCN(C(=O)c3ccc(CSc4nc5ccncc5[nH]4)cc3)CC2)c1,0,?,13µM,22µM,0,0
O=C(c1ccc(CSc2nc3ccncc3[nH]2)cc1)N1CCCCC1,0,?,25µM,25µM,0,0
CCN(CC)C(=S)S,-,-,?,-,-,45µM
Cc1nn(S(=O)(=O)c2ccc(F)cc2)c(C)c1S(=O)(=O)N1CCOCC1,-,-,35µM,-,0,0
Cc1ccc(S(=O)(=O)n2nc(C)c(S(=O)(=O)N3CCCCC3)c2C)cc1,-,0,45µM!,-,0,0
Cc1nn(S(=O)(=O)c2ccccc2)c(C)c1S(=O)(=O)N1CCOCC1,-,-,79µM,-,0,0
CCOC(=O)c1cccc(NC(=O)c2oc3c(c2C)-c2nn(CC)cc2CC3)c1,-,0,0,-,0,-
Cc1cc(C)c(-c2cc([C@H](C)O/N=C3/[C@H]4OC4[C@@H](O)[C@H]4[C@H]3CCn3c(=O)n(-c5ccccc5)c(=O)n34)on2)c(C)c1 (stereo not given in full),-,-,-,?,-,0
Cc1nnc(SCC(=O)NC(C)(C)C)n1NCc1c(F)cccc1Cl,0,0,0,0,0,0
Cc1ccc(S(=O)(=O)CCSc2nccn2C)cc1,?,0,-,0,0,0
Cc1cc(C)c(-n2c(SCCS(=O)(=O)c3ccc(F)cc3)n[nH]c2=O)c(C)c1,0,-,?,14µM,?,0
Cn1c(SCCS(=O)(=O)c2ccc(Cl)cc2)nnc1-c1ccccc1,0,0,0,?,0,0
Cc1ccc(S(=O)(=O)CCSc2n[nH]c(=O)n2-c2ccccc2)cc1,0,-,0,20µM,0,0
CCC(C)NC(=O)c1cn(CC)c2ccc(S(=O)(=O)N3CCc4ccccc4C3)cc2c1=O (stereo not given),-,-,0,-,0,-
Cc1ccc(-n2c(N)c(C(=O)NCc3cccnc3)sc2=S)cc1,0,0,10µM,?,0,35µM
CCOC(=O)c1sc(=S)n(C)c1N,0,0,0,0,0,0
CCOC(=O)c1sc(=S)n(-c2ccc(Cl)cc2)c1SC,0,0,0,0,0,0
CCOC(=O)c1sc(=S)n(-c2ccc(C)cc2)c1N,0,-,8.9µM,14µM,0,40µM
SMILES,KDM4E inh,Lamin A splicing,G9a inh,ALDH1A1 block,miR-21 FLuc,Sfp inh
CCOC(=O)c1sc(=S)n(-c2ccc3c(c2)OCO3)c1N,0,0[0.0737 µM],0[0.501 µM],10µM,0,28µM
CCOC(=O)c1sc(=S)n(-c2ccc(F)c(F)c2)c1N,0,0,?,13µM,0,22µM
CCc1nn(CC(=O)NCCCN(CC(C)C)CC(C)C)c(=O)c2cc3sc(C)cc3n12,-,-,0,-,0,-
CCOC(=O)c1sc(NC(=O)COc2ccc3c(c2)OCO3)nc1C,-,-,40µM,-,0,0
c1coc(-c2ncc[nH]2)c1,0,0,?,18µM,0,0
c1coc(-c2ccnc3ncnn23)c1,?,0,0,?,0,0
O=C(NN1CCOCC1)c1sc2cccc(F)c2c1Cl,0,-,28µM,?,0,0
N=C1C(c2nc3ccccc3[nH]2)=C(O)CN1c1ccc(CC(=O)O)cc1,0,0,0[12.7 µM],24µM,0,?
N=C1C(c2nc3ccccc3[nH]2)=C(O)CN1c1ccccc1,0,0,0,0,0,0
C1=CCN(Cc2ccccc2)C1,-,-,0[12.7 µM],-,0,0
O=C(COC(=O)c1c[nH]c(=O)[nH]c1=O)Nc1cccc([N+](=O)[O-])c1,-,-,0[12.7 µM],-,-,-
O=C(CSc1ncn[nH]1)c1cccc([N+](=O)[O-])c1,7.9µM,0,25µM,?,0,50µM
O=C(CSc1n[nH]c(=O)[nH]c1=O)c1ccccc1,0,0,?,?,0,0
O=C(CSc1nc2ncccc2[nH]1)NC1CCCC1,-,-,22µM,-,0,?
O=C(CSc1n[nH]c(=O)[nH]c1=O)c1cccc([N+](=O)[O-])c1,0,-,32µM,?,0,0
O=C(CCc1n[nH]c(=O)[nH]c1=O)Nc1cccc([N+](=O)[O-])c1,0,0[9.22 µM],50µM,0,0,0
Fc1ccc(CSc2nc3ncccc3[nH]2)cc1,0,0,50µM,0,0,0
O=C(CSc1nc2ncccc2[nH]1)c1cccc([N+](=O)[O-])c1,0,?,40µM,8.9µM,0,0
Cc1cc(SCC(=O)c2cccc([N+](=O)[O-])c2)nc(=O)[nH]1,-,-,28µM,-,0,45µM
COc1ccc(CNC(=O)Cn2ccc3cc(S(=O)(=O)N4CCCCC4)ccc32)c(OC)c1,-,-,0,-,0,-
O=S1(=O)C[C@@H]2N=C(N/N=C/c3ccccc3)S[C@@H]2C1,0,-,?,-,0,0
C/C(=N\NC1=N[C@H]2CS(=O)(=O)C[C@H]2S1)c1ccccc1,0,-,50µM,-,0,?
N#CCOc1coc(CN2CCN(c3ccccc3)CC2)cc1=O,-,-,0[0.501 µM],-,0,0
CCCCOc1ccc2c(c1)C(=O)c1cc(O)ccc1-2,0,-,32µM,40µM,0,0
CCOc1nc2c(c(-c3cccs3)c1C#N)Cc1ccccc1-2,?,-,0,-,0,0
SMILES,KDM4E inh,Lamin A splicing,G9a inh,ALDH1A1 block,miR-21 FLuc,Sfp inh
CC(=O)COc1nc2c(c(-c3ccco3)c1C#N)CCc1ccccc1-2,?,-,45µM,-,0,0
O=C1CCC(=O)N1c1cccc(OS(=O)(=O)c2ccccc2)c1,0,?,0,0.35µM,0,0
CC1CCC2C(=O)N(c3cccc(OS(=O)(=O)c4ccccc4)c3)C(=O)C2C1 (stereo not given),0,0,0,13µM,0,0
CN(CC(=O)Nc1ccccc1Br)C(=O)Cn1[nH]c(=O)c2ccccc2c1=O,-,-,0[12.7 µM],-,-,-
COc1ccc(N2Cc3cccc(C(=O)NC(C)CCc4ccco4)c3C2=O)cc1 (stereo not given),?,0,?,25µM,0,45µM
COc1ccc(C(=O)/C(=C\c2ccco2)N2C=CC=CC2=C(C#N)C#N)cc1,?,?,0[2.33 µM],?,?,18µM
COc1ccc(/C=C(/C(=O)c2cccs2)N2C=CC=CC2=C(C#N)C#N)cc1,0,?,8.9µM,?,?,3.5µM
COc1ccc(C(=O)N/C(=C\c2ccco2)C(=O)OCc2ccco2)cc1,0,-,?,-,0,0
CC(C)(C)NC(=O)/C(=C/c1ccco1)c1ccccc1,0,0[0.0737 µM],0[0.501 µM],0,0,?
